The pIC50 is the negative decadic logarithm of the IC50, by convention in mol/L. Low values mean a high IC50, high ones a low IC50.

Amino acid sequences for entries named in this document (tags omitted). Residues count along the entry.
UniProt P05067, 18-770 limits assumed: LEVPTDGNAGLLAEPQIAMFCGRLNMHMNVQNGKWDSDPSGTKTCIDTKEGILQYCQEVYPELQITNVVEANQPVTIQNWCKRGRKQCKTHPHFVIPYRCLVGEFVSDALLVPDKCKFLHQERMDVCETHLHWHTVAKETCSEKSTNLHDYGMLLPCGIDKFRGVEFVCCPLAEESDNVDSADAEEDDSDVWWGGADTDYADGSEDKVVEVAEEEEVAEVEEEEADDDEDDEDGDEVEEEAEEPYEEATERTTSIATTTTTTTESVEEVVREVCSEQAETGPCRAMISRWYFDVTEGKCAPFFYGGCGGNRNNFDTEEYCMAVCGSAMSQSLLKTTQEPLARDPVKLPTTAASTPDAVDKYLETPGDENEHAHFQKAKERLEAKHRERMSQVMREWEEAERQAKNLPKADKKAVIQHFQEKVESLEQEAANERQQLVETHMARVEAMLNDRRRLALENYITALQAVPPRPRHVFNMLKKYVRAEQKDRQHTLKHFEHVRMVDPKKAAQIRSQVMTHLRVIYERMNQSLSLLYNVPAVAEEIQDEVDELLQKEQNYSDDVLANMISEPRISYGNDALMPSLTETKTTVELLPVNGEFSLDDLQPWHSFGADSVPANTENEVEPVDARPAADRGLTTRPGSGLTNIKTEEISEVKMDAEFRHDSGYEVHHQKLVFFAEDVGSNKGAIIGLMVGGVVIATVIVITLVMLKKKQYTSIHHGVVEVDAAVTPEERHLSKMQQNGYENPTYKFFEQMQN

This experiment concerns the target Amyloid-beta precursor protein (Homo sapiens, UniProt P05067). The experiment is described as follows: Electrochemiluminescence (ECL)-Based Immunoassay: To measure γ-secretase activity, membranes were incubated at 37° C. for 1 h in 50 μL of buffer containing 20 mM Hepes (pH 7.0) and 2 mM EDTA. At the end of the incubation, Aβ 40 and Aβ 42 were measured using an electrochemiluminescence (ECL)-based immunoassay. Aβ 40 was identified with antibody pairs TAG-G2-10 and biotin-W02, while Aβ 42 was identi.

Each structure is given as a SMILES string. pIC50: −log10 of the molar value.

`O=S(=O)(c1ccc(Cl)cc1)[C@@]12CCCC3(COC3)[C@@H]1COc1c(F)ccc(F)c12` gave a pIC50 of 8.00.

The values are drawn from ChEMBL document CHEMBL3886962, “Spirocyclic sulfones as gamma secretase inhibitors” (2016).
